Results taken from US7632829B2, “Diazepan derivatives” (Hoffmann-La Roche Inc., priority 2006, dated 2009).

The chains behind the UniProt entries cited, without tags or fusion partners. Residues count along the entry.
UniProt P41597, 1-360 isoform 2: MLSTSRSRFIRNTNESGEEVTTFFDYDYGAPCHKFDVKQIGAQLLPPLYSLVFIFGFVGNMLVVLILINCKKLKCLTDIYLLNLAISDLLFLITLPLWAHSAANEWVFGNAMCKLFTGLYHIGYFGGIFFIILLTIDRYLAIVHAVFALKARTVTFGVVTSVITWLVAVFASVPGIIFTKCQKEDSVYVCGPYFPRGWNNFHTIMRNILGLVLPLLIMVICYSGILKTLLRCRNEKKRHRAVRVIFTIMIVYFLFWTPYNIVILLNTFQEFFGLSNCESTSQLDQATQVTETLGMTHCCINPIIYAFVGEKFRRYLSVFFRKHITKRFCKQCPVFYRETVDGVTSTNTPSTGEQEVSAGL

Target: human chemokine receptor 2 isoform B (Homo sapiens, UniProt P41597)
Assay: Calcium mobilization assay (FLIPR, CHOK1-CCR2B-A5 cells, 20 nM MCP-1)
Conditions: Ca mobilisation assay, CCR2, antagonist activity vs 20 nM MCP-1
Method: CHOK1-CCR2B-A5 cells (from Euroscreen) stably overexpressing the human chemokine receptor 2 isoform B were cultured in Nutrient Hams F12 medium supplemented with 5% FBS, 100 U/ml penicillin, 100 μg/ml streptomycin, 400 μg/ml G418 and 5 μg/ml puromycin.
For the assay cells were grown overnight in 384-well black clear flat bottom polystyrene plates (Costar) at 37° C. at 5% CO2. After washing with DMEM, 20 mM Hepes, 2.5 mM probenecid, 0.1% BSA (DMEM assay buffer) cells were loaded with 4 μM Fluo-4 in the same DMEM assay buffer for 2 hours at 30° C. Excess dye was removed and cells were washed with DMEM assay buffer. 384-well compound plates were prepared with DMEM assay buffer/0.5% DMSO with or without various concentrations of test compounds. Usually compounds were tested for agonist and antagonist activity.
Test compounds were added to the assay plate and agonist activity was monitored as fluorescence for 80 seconds with a FLIPR (488 nm excitation; 510-570 nm emission; Molecular Devices). After 20-30 min. of incubation at 30° C., 20 nM MCP-1 (R&D; Roche) was added and fluorescence was monitored again for 80 seconds. Increases in intracellular calcium are reported as maximum fluorescence after agonist exposure minus basal fluorescence before exposure. Antagonist activity is indicated as inhibitor concentration required for 50% inhibition of specific calcium increases.

IC50: 382 nM
SMILES: CC1CCN(CCCCN2CCN(C(=O)/C=C/c3ccc(F)c(Cl)c3)CCC2=O)CC1O (stereo not shown)
